# Measured values reported in publication doi:10.1101/2025.11.20.689572v1 (biorxiv, 2025).
# Chains of the proteins cited; added tags and fusions are not shown. Lines headed by an entry give the natural chain unless they say otherwise; changes in a name come on top.
# UniProt P11229: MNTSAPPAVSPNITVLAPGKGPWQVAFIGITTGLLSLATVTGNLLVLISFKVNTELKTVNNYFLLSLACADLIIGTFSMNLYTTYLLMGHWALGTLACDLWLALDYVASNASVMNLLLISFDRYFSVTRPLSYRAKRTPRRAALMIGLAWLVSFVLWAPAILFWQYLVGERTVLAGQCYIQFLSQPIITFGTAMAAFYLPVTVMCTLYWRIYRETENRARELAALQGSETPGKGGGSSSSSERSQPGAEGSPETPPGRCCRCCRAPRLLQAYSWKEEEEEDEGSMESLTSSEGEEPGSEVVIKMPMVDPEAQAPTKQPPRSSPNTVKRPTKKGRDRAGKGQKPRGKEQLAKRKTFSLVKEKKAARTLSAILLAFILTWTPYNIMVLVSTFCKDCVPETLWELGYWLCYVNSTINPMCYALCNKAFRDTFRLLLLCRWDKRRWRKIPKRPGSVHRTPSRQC
# Target: CHRM1 (Homo sapiens, UniProt P11229)
# Test: cell-based
# Parameters: TRUPATH BRET2 G-protein dissociation; antagonist mode against agonist EC80
# Settings: HEK293, read-out: Xanomeline, Assay=Gq; agonist mode, % of control agonist
structure (smiles),measurement,value
CCCCCCOc1nsnc1C1=CCCN(C)C1 [Xanomeline],Emax,101%
